Values quoted from earlier work as cited in publication PMC8011576 (Nature biomedical engineering, 2020).

Settings: human clinical data, systemic compartment, oral product; ref Digard et al.[28]; cited from earlier work

In the case of `CN1CCC[C@H]1c1cccnc1` [Nicotine, nicotine], the Cmax is listed as 52 ± 9 nM.
